This test has as its system E. dermatitidis. As to the kind of experiment: Antimicrobial susceptibility testing (CLSI M27-A3/M38-A2, chequerboard), MIC100, Example 2. It is filed as cell-based.

Regarding `OC(Cn1cncn1)(Cn1cncn1)c1ccc(F)cc1F` [FCZ, fluconazole], the MIC (Exophiala dermatitidis, antifungal alone) is more than 256 µg/mL. For the same molecule, under “in combination with MIC100 and sub-MIC100 concentrations of Novamycin”, the “MIC100 of the antifungal in combination with Novamycin (+)” value is more than 256 µg/mL.
